Assay results from patent US7964567B2, “Monomethylvaline compounds capable of conjugation to ligands” (Seattle Genetics, Inc., priority 2003, dated 2011).
“And” between values parts separate entries of the source, which are not always exact repeats. Identical values can stand only once.

Columns and labels:
SK-BR-3 cells = test: In vitro cell proliferation assay (CellTiter-Glo), SK-BR-3 cells; type: cell-based, human; details: ADC incubated 3-5 days
BT474 cells = test: In vitro cell proliferation assay (CellTiter-Glo), BT-474 cells; type: cell-based; details: ADC incubated 3-5 days
MCF-7 cells = test: In vitro cell proliferation assay (CellTiter-Glo), MCF-7 cells; type: cell-based; details: MCF-7 cells do not overexpress HER2 (FIG. 9)
MDA-MB-468 cells = test: In vitro cell proliferation assay (CellTiter-Glo), MDA-MB-468 cells; type: cell-based; details: MDA-MB-468 cells do not overexpress HER2 (FIG. 10)
Acute toxicity in rats = type: in vivo, Sprague-Dawley rats
[1] = Cynomolgus monkey toxicity/safety; type: in vivo, Macaca fascicularis (cynomolgus monkey)
[2] = Plasma clearance pharmacokinetics in rats; type: in vivo, Sprague-Dawley rats; details: rat, 2 mg/kg IV
[3] = Study Day 5, 2105 μg MMAF/m^2 (groups 3, 5, 7, 8)
[4] = female rats, single IV dose, 2105 μg MMAF/m^2 (groups 3, 5, 7, 8)

H-MC-(D)val-(D)cit-PAB-MMAE: trastuzumab-MMAE conjugate with (D)val-(D)cit linker
IC50 (μg ADC/ml) (SK-BR-3 cells): 0.02 μg ADC/ml

H-MC-(D)val-(L)cit-PAB-MMAE: trastuzumab-MMAE conjugate with (D)val-(L)cit linker
IC50 (μg ADC/ml) (SK-BR-3 cells; 3.2 MMAE/Ab): 0.003 μg ADC/ml
IC50 (μg ADC/ml) (SK-BR-3 cells; 8.4 MMAE/Ab): 0.0015 μg ADC/ml

H-MC-(L)val-(L)cit-PAB-MMAE, 8.7 MMAE/Ab: trastuzumab-MMAE conjugate with (L)val-(L)cit linker
IC50 (μg ADC/ml) (SK-BR-3 cells): 0.0003 μg ADC/ml

H-MC-(N-Me)vc-PAB-MMAF, 3.9 MMAF/Ab: trastuzumab-MMAF conjugate with N-methyl-valine citrulline linker, modified to prevent cleavage by cathepsin B
IC50 (μg ADC/ml) (SK-BR-3 cells): 0.0035 μg ADC/ml
IC50 (μg ADC/ml) (BT474 cells): 0.010 μg ADC/ml
inhibition of the proliferation of MCF-7 cells (MCF-7 cells): did not inhibit
inhibition of the proliferation of MDA-MB-468 cells (MDA-MB-468 cells): did not inhibit
change in body weights versus group 1 (Vehicle) animals (Acute toxicity in rats; Study Day 5, 840 μg MMAF/m^2 (groups 2, 4, 6)): statistically different
change in body weights versus group 1 (Vehicle) animals (Acute toxicity in rats; [3]): statistically different
body weight during the study (Acute toxicity in rats; female rats, single IV dose, 840 μg MMAF/m^2 (groups 2, 4, 6)): gained weight
body weight during the study (Acute toxicity in rats; [4]): lost weight
toxicity profile (Acute toxicity in rats; female rats, single IV dose, 840 and 2105 μg MMAF/m^2, necropsy day 5): most evident

H-MC-MMAE: trastuzumab conjugated to maleimidocaproyl-monomethyl auristatin E
IC50 (μg ADC/ml) (SK-BR-3 cells; 4.6 MMAE/Ab): 0.05 μg ADC/ml
IC50 (μg ADC/ml) (SK-BR-3 cells; 8.8 MMAE/Ab): 0.018 μg ADC/ml
IC50 (μg ADC/ml) (BT474 cells; 4.6 MMAE/Ab): 0.07 μg ADC/ml
IC50 (μg ADC/ml) (BT474 cells; 8.8 MMAE/Ab): 0.04 μg ADC/ml

H-MC-vc-PAB-MMAE: trastuzumab conjugated via a cysteine to MC-val-cit-PAB-MMAE; preparations of different loading
IC50 (μg ADC/ml) (SK-BR-3 cells; 4.1 MMAE/Ab): 0.010 μg ADC/ml
IC50 (μg ADC/ml) (SK-BR-3 cells; 7.5 MMAE/Ab): 0.0025 μg ADC/ml
IC50 (μg ADC/ml) (BT474 cells; 3.3 MMAE/Ab): 0.02 μg ADC/ml
IC50 (μg ADC/ml) (BT474 cells; 4.1 MMAE/Ab): 0.015 μg ADC/ml
IC50 (μg ADC/ml) (BT474 cells; 7.5 MMAE/Ab): 0.0025 μg ADC/ml
inhibition of the proliferation of MCF-7 cells (MCF-7 cells): did not inhibit
inhibition of the proliferation of MDA-MB-468 cells (MDA-MB-468 cells): did not inhibit
peripheral blood granulocytes ([1]; after a single dose of 1100 mg/m^2, complete recovery 14 days post-dose): depletion
liver toxicity ([1]; cynomolgus monkey, any of the dose levels tested): no evidence of liver toxicity

H-MC-vc-PAB-MMAF: trastuzumab conjugated via a cysteine to MC-val-cit-PAB-MMAF 9; preparations of different loading
IC50 (μg ADC/ml) (SK-BR-3 cells; 3.7 MMAF/Ab): 0.010 μg ADC/ml
IC50 (μg ADC/ml) (SK-BR-3 cells; 3.8 MMAF/Ab): 0.0035-0.01 μg ADC/ml and 0.007 μg ADC/ml
IC50 (μg ADC/ml) (SK-BR-3 cells; 4.4 MMAF/Ab): 0.006-0.007 μg ADC/ml
IC50 (μg ADC/ml) (SK-BR-3 cells; 4.8 MMAF/Ab): 0.006 μg ADC/ml
IC50 (μg ADC/ml) (BT474 cells; 3.7 MMAF/Ab): 0.02 μg ADC/ml
IC50 (μg ADC/ml) (BT474 cells; 3.8 MMAF/Ab): 0.015 μg ADC/ml and 0.02-0.05 μg ADC/ml
IC50 (μg ADC/ml) (BT474 cells; 4.4 MMAF/Ab): 0.01 μg ADC/ml
inhibition of the proliferation of MCF-7 cells (MCF-7 cells): did not inhibit
inhibition of the proliferation of MDA-MB-468 cells (MDA-MB-468 cells): did not inhibit
change in body weights versus group 1 (Vehicle) animals (Acute toxicity in rats; [3]): statistically different
body weight during the study (Acute toxicity in rats; [4]): lost weight
liver enzymes ([1]; at 550 (transient) and 880 mg/m^2 dose level): elevation of liver enzymes
granulocytopenia ([1]; cynomolgus monkey): no evidence of granulocytopenia

H-phe-lys-MMAE, linked via a lysine [lys]: trastuzumab phe-lys MMAE conjugate linked via a lysine
IC50 (μg ADC/ml) (SK-BR-3 cells): 0.0015 μg ADC/ml

H-vc-MMAE, linked via a lysine [lys]: trastuzumab val-cit MMAE conjugate linked via a lysine
IC50 (μg ADC/ml) (SK-BR-3 cells): 0.002 μg ADC/ml

HER F(ab′)2-MC-vc-MMAE: MC-vc-MMAE conjugate of Herceptin F(ab′)2
% Conj. ([2]; AUCinf of ADC ÷ AUCinf total Ab): 95%
AUCinf ([2]; analyte Conj. (ADC)): 8.8 µg·days/mL
Cmax ([2]; analyte Conj. (ADC)): 36900 ng/mL
T½ Term. ([2]; analyte Conj. (ADC)): 6.96 h
AUCinf ([2]; analyte Total Ab): 9.3 µg·days/mL
CL ([2]; analyte Total Ab): 0.151 mL/min/kg
Cmax ([2]; analyte Total Ab): 34400 ng/mL
T½ Term. ([2]; analyte Total Ab): 8.4 h

Trastuzumab: recombinant DNA-derived humanized monoclonal antibody that binds HER2 [reference compound]
IC50 (μg ADC/ml) (SK-BR-3 cells): 0.083 μg ADC/ml
